Reference: patent US10414740B2, “Glutaminase inhibitors and method of use” (Agios Pharmaceuticals, Inc., priority 2012, dated 2019)

Target: T1, glutaminase (GAC) (Homo sapiens, UniProt O94925)
T1 sequence (O94925 55-598 isoform O94925-3 limits assumed): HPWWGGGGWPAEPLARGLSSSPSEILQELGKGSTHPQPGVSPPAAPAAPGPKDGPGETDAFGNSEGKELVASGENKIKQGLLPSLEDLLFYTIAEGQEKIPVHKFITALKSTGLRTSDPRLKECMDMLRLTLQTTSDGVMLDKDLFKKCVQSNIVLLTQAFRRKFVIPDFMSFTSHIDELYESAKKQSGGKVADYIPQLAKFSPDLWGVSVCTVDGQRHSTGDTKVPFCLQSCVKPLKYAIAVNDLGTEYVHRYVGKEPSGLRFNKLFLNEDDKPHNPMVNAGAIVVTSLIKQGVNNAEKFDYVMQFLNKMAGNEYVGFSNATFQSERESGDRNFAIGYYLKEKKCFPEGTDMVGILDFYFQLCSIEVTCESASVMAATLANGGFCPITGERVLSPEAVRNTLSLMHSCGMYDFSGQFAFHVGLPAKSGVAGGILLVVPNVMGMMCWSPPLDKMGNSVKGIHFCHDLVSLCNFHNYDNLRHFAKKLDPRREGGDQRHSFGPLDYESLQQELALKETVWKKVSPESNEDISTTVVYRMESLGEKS
Experiment: glutaminase coupled endpoint assay (Example A)
Type: biochemical
Conditions: inhibition of glutaminase; IC50 tested in an assay of Example A or Example B
Method: In this example, the enzymatic activity of glutaminase is measured through a coupled endpoint assay. […] The glutamate produced is converted to 2-OG by a kinetic excess of glutamate dehydrogenase. […] However, a kinetic excess of the third coupling enzyme, diaphorase, recycles NAD from NADH to keep the NAD concentration constant during the timecourse of the assay. Diaphorase, also supplied in kinetic excess, oxidizes NADH produced by GDH back to NAD with the concomitant reduction of rezasurin to the highly fluorescent resorufin. […] A reduction in the signal indicates inhibition of some component of the coupled enzyme system. Prospective hits are counterscreened against GDH/diaphorase alone to remove hits to the coupling enzyme system in a second assay.
2. […] Add 1 μl a compound in 100% DMSO 2. Add 40 μl of Enzyme Mix and incubate for 60 minute at room temperature 3. Add 10 μl of Substrate Mix to start reaction 4.

In the case of `Cc1cccc(CC(=O)Nc2nnc(CCCCc3nnc(NC(=O)Cc4cccc(C)c4)s3)s2)c1` [Compound 120, N,N′-(5,5′-(butane-1,4-diyl)bis(1,3,4-thiadiazole-5,2-diyl))bis(2-m-tolylacetamide)], the IC50 is reported as less than 100 nM.

`O=C(Cc1ccccc1Cl)Nc1nnc(CCCCc2nnc(NC(=O)Cc3ccccc3Cl)s2)s1` [Compound 86, N,N′-(5,5′-(butane-1,4-diyl)bis(1,3,4-thiadiazole-5,2-diyl))bis(2-(2-chlorophenyl)acetamide)] gave an IC50 of less than 100 nM.
